Molecular target: aMLV envelope protein on pseudotyped virus (negative control) (aMLV)
Experiment: cell-based or functional assay

B1: 1456_P20 (PG20) (antibody, V domains shown)
VH: QVRLVQSGPEVKKPGSSVTVSCQASGGTFSSYAFTWVRQAPGQGLEWLGMVTPIFGEAKYSQRFEGRVTITADESTSTTSIELRGLTSEDTAIYYCARDRRAVPIATDNWLDPWGQGTLVTVSS
VL: DIQLTQSPSSLSASVGDRVSITCRASQTINNYLNWYQQTPGKAPKLLIYGASNLQNGVPSRFSGSGSGTDFTLTISSLQPEDFATYYCQQSFSTPRTFGQGTRLDIKR
- IC50, pseudovirus neutralization, 1 hour Virus/Ab Incubation: > 50 µg/mL
- IC50, pseudovirus neutralization, 18 hour Virus/Ab Incubation: > 50 µg/mL

Source: patent US20200024330A1 (published 2020)
